Data reported in patent publication US8426169B2, “Glycosylate derivatives of mithramycin, method of preparation and uses thereof” (University of Kentucky Research Foundation, priority 2007, dated 2013).

What follows are compounds tested on tumor cell lines. Conditions: across the tumor cell lines assayed; 48 hours of exposure; SRB.

Q: Which “cytotoxic activity against the tumor cell lines assayed (ranking in words)” value (from here on “cytotoxic activity”) does the source give for `CO[C@H](C(=O)[C@@H](O)[C@@H](C)O)[C@@H]1Cc2cc3cc(O[C@H]4C[C@@H](O[C@H]5C[C@@H](O)[C@H](O)C(C)O5)[C@H](O)C(C)O4)c(C)c(O)c3c(O)c2C(=O)[C@H]1O[C@H]1C[C@@H](O[C@H]2C[C@@H](O[C@H]3C[C@@H](O)[C@H](O)C(C)O3)[C@@H](O)C(C)O2)[C@H](O)C(C)O1` (stereo partly drawn) [formula VIII] here?
A: The value was “the most active (with an activity similar to that of MTM)”.

Q: `CO[C@H](C(=O)[C@@H](O)[C@@H](C)O)[C@@H]1Cc2cc3cc(O[C@H]4C[C@@H](O[C@H]5C[C@@H](O)[C@H](O)C(C)O5)[C@H](O)C(C)O4)c(C)c(O)c3c(O)c2C(=O)[C@H]1O[C@H]1C[C@@H](O[C@H]2C[C@@H](O)[C@@H](O)C(C)O2)[C@H](O)C(C)O1` (stereo partly drawn) [formula XII, demycarosyl-MTM] was tested. Which “cytotoxic activity” value did it give?
A: The value was “the least active”.

Q: `CO[C@H](C(=O)[C@@H](O)[C@@H](C)O)[C@@H]1Cc2cc3cc(O[C@H]4CC[C@H](O)C(C)O4)c(C)c(O)c3c(O)c2C(=O)[C@H]1O[C@H]1C[C@@H](O[C@H]2C[C@@H](O[C@H]3C[C@](C)(O)[C@H](O)C(C)O3)[C@@H](O)C(C)O2)[C@H](O)C(C)O1` (stereo partly drawn) [formula XIII] was tested. Which “cytotoxic activity” value did it give?
A: Its value is “the least active”.
